We go through one molecule from patent US5110831A, “Vinylogous hydroxamic acids and derivatives thereof as 5-lipoxygenase inhibitors” (Du Pont Merck Pharmaceutical Company, priority 1990, dated 1992).

The IC50 is the midpoint of a concentration-inhibition curve. Higher therefore signals weaker potency in that assay.

In the assay the target is T1, RBL-1 5-Lipoxygenase (Rattus norvegicus, UniProt P12527).
T1 construct: supernatant from homogenized RBL-1 cells; endogenous in cells; host or cells: RBL-1 cells (10,000×g supernatant of homogenate)
T1 sequence (P12527 1-673): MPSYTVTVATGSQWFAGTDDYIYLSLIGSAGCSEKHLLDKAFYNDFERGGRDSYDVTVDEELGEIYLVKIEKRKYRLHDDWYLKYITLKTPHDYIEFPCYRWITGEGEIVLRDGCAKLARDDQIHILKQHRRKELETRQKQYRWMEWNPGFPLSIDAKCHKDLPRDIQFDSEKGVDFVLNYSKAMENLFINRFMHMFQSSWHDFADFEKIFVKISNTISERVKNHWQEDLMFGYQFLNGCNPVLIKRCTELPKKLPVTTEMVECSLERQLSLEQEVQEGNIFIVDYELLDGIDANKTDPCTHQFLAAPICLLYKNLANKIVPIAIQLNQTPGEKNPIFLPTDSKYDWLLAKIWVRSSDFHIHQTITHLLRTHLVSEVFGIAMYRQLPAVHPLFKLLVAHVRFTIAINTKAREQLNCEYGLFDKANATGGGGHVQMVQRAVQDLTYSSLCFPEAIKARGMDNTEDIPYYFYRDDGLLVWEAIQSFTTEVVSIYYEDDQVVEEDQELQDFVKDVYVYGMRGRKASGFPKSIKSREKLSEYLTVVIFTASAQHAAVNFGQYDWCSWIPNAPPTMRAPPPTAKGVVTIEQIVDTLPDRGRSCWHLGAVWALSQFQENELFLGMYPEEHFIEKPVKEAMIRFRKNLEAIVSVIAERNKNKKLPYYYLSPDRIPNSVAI
Nature of the assay: RBL-1 5-lipoxygenase assay (10,000×g supernatant from homogenized RBL-1 cells, [14C] arachidonic acid). The settings on record: pH 7.0, 37° C., 5 min preincubation, 0.042 mM arachidonic acid; linear regression on three concentrations. The format is biochemical. On the procedure:
The potencies of the compounds as 5-lipoxygenase inhibitors were determined using a RBL-1 5-lipoxygenase assay. The procedure of Jakschik et al. was used (Jakschik, B. A.; Lee, L. H.; Shuffer, G.; Parker, C. W., Prostaglandins, 1978, 16, 733; Jakschik, B. A.; Sun, F. F.; Lee, L. H.; Steinhoff, M. M. Biochem. Biophys. Res. Commun., 1980, 95, 100; […]., Biochem. Biophys. Res. Commun., 1981, 102, 624). The enzyme was prepared as a 10,000×gsupernatant from homogenized RBL-1 cells. Because of variability in the enzyme content from culture to culture, an amount of supernatant was chosen to give a net production of 3300-3800 dpm of 5-HETE under the assay conditions (total cell protein 9-20 μg/assay). All reactions were run in duplicate. In a total volume of 100 μL, the appropriate amount of enzyme was incubated with test compound (prepared in 5% DMSO, 95% 0.2 M Tris, pH 8.5) in a phosphate buffer (45 mM sodium phosphate, 0.83 mM EDTA, 0.083% gelatin, 0.1 mM glutathione, 0.83 mM calcium chloride, 0.012 mM indomethacin) at pH 7.0 and 37° C. for 5 min. The reaction was initiated by the addition of 20 μL of a solution of arachidonic acid in phosphate buffer. […] Activity was measured as the total radioactivity in the 5-LO products, and inhibition was calculated at (1-D/C)×100%, where D is the activity in the presence of the test compound and C is the control activity.

In turn, `CN(O)C=CC(=O)c1ccc(-c2ccccc2)cc1` [Example 1r] yielded an IC50 of 60 nM.
